Broadly, the Km is the substrate concentration at which the rate is half of its maximum.

The values below come from ChEMBL document CHEMBL1124471, “Design and synthesis of inhibitors of N8-acetylspermidine deacetylase” (J Med Chem, 1989).

Substrate in this data set: CC(=O)NCCCCNCCCN
The following applies: Rattus norvegicus.

B1: Peroxisomal N(1)-acetyl-spermine/spermidine oxidase (Homo sapiens), Q6QHF9 (protein)
chain: MESTGSVGEAPGGPRVLVVGGGIAGLGAAQRLCGHSAFPHLRVLEATARAGGRIRSERCFGGVVEVGAHWIHGPSRGNPVFQLAAEYGLLGEKELSQENQLVETGGHVGLPSVSYASSGASVSLQLVAEMATLFYGLIDQTREFLHAAETPVPSVGEYLKKEIGQHVAGWTEDEETRKLKLAVLNSFFNLECCVSGTHSMDLVALAPFGEYTVLPGLDCTFSKGYQGLTNCMMAALPEDTVVFEKPVKTIHWNGSFQEAAFPGETFPVSVECEDGDRFPAHHVIVTVPLGFLREHLDTFFDPPLPAEKAEAIRKIGFGTNNKIFLEFEEPFWEPDCQLIQLVWEDTSPLEDAAPELQDAWFRKLIGFVVLPAFASVHVLCGFIAGLESEFMETLSDEEVLLCLTQVLRRVTGNPRLPAPKSVLRSRWHSAPYTRGSYSYVAVGSTGGDLDLLAQPLPADGAGAQLQILFAGEATHRTFYSTTHGALLSGWREADRLLSLWAPQVQQPRPRL
Turning to B1, the Km came to 11 µM.
